Measured affinities in a library of Ab-14 light chain variants

Binding partner: SARS-CoV-2 spike HR2 peptide, sequence PDVDLGDISGINAS.

Parent: Ab-14, a human scFv built as VH, a (GGGGS)3 linker, VL. Only the CDRs of the light chain vary.
VH: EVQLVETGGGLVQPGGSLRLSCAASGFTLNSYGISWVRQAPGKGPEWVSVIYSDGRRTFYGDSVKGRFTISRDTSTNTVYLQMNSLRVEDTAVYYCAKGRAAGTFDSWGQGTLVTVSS
VL: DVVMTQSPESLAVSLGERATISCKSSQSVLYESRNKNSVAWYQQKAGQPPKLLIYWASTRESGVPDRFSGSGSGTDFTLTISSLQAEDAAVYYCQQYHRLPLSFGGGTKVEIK

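Phage display of a naive human antibody library on the peptide gave the parent. Variants in AAYL50 differ from the parent at up to three CDR positions; double and triple changes were sampled at random. The assay is AlphaSeq: two haploid yeast populations carry antibody and antigen on their surface. After mating in shaken culture at 30 °C for 16 h, diploids were selected and their barcode pairs sequenced. A regression on co-assayed BCL2-family reference pairs converts the normalised counts of each replicate to an apparent Kd. The assay was run in three technical replicates.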

Changes read parent residue, position, new residue, counted from the first residue of the VL shown.
Numbers give log10(Kd / nM), so 0 is 1 nM and 3 is 1 µM. Smaller is tighter.
An entry "nd" has no value in the source: the pair was not observed among the diploids in that replicate. This suggests poor binding but is not conclusive.

Variant S103Y showed 1.95, 1.87, 2.10 (controls 2 of 9).
Variant V29S/T59G/Q95M showed 4.73, nd, nd (controls 1 of 9).
Variant S25H/Q96K showed 1.66, 1.64, 1.55 (controls 4 of 9).
Variant N37F/W56L showed 2.08, 1.92, 1.91 (controls 1 of 9).
Variant S25T/S28G/S38H showed 0.85, 1.17, 1.09 (controls 3 of 9).
Variant V29N/L30D/H98G showed 0.44, 0.79, 0.59 (controls 2 of 9).
Variant L30F/S38W/W56T showed nd, nd, nd (controls 0 of 9).
Variant E32L/T59H/Q96A showed nd, 4.10, nd (controls 1 of 9).
Variant S58H/Q95L showed nd, nd, nd (controls 0 of 9).
Variant E32T/K36Q/A40D showed nd, nd, nd (controls 1 of 9).
Variant S38M/V39S/A57M showed nd, nd, 4.17 (controls 3 of 9).
Variant S28N/W56G/H98V showed -0.46, -0.20, -0.38 (controls 0 of 9).
Variant S33L/E61K/P101M showed nd, nd, nd (controls 1 of 9).
Variant K24C/V39H/L102E showed nd, nd, nd (controls 1 of 9).
Variant E32A/N37F/Q96V showed nd, nd, 4.46 (controls 0 of 9).
Variant V29H/N35A showed 1.54, 1.52, 1.40 (controls 5 of 9).
Variant R34Y/S38W/V39G showed nd, nd, nd (controls 2 of 9).
Variant S62W/L100S/L102F showed nd, nd, nd (controls 0 of 9).
Variant Q95A/L100D showed 3.03, nd, nd (controls 1 of 9).
Variant R34L/Q96Y/H98G showed 0.15, 0.28, 0.37 (controls 1 of 9).
Variant L30F/Q95D showed nd, nd, nd (controls 0 of 9).
Variant S26P/V29W/S33F showed 1.54, 1.53, 1.70 (controls 0 of 9).
Variant S25D/R99A/L102I showed nd, nd, nd (controls 0 of 9).
Variant S38R/A57F/S62Y showed nd, nd, nd (controls 3 of 9).
Variant V39C/A57L/L102N showed nd, nd, nd (controls 1 of 9).
Variant K24S/Q95K/Y97R showed nd, nd, nd (controls 3 of 9).
Variant Q27P/Y97K/S103F showed nd, nd, nd (controls 1 of 9).
Variant Q27E/S33P/S58L showed nd, nd, 4.87 (controls 3 of 9).
Variant K24P/S26T/N37M showed nd, nd, nd (controls 1 of 9).
Variant S26I/K36H/V39T showed nd, nd, nd (controls 5 of 9).
Variant S25P/Y31K/S58T showed 2.52, nd, nd (controls 1 of 9).
Variant S58D/T59F/L102R showed 3.42, 3.59, 3.85 (controls 5 of 9).
Variant S38D/E61W/L102Q showed nd, nd, nd (controls 0 of 9).
Variant Y31P/Q96V/S103C showed 4.24, nd, 5.92 (controls 4 of 9).

Extract of 2 entries:

{"changes": "V29S/T59G/Q95M", "log10 Kd (nM) by replicate": "4.73, nd, nd", "control signals": "1 of 9"}
{"changes": "S38D/E61W/L102Q", "log10 Kd (nM) by replicate": "nd, nd, nd", "control signals": "0 of 9"}

Parent in this assay: reference entry 0.65, copy in this library 1.68.
Three control strains display no target. For library AAYL50, 18% of the pairings with them gave a signal, with a median of 4.19 and one signal in twenty below 2.99, so weak values seen in few replicates may be background. The control count says in how many pairings with the empty strains this scFv gave a signal.

The measurements come from Engelhart et al. 2022 (doi:10.1038/s41597-022-01779-4) through the FLAb antibody collection.